Target: Thymidylate synthase (Escherichia coli (strain K12), UniProt P0A884)
Assay: Inhibition Assay
Excerpt: Affinity assay of specificities of thymidylate synthase (TS)inhibitors

Amino acid sequences for entries named in this document (tags omitted). A change or cut given only in a name is not applied to a line headed by its entry.
UniProt P0A884: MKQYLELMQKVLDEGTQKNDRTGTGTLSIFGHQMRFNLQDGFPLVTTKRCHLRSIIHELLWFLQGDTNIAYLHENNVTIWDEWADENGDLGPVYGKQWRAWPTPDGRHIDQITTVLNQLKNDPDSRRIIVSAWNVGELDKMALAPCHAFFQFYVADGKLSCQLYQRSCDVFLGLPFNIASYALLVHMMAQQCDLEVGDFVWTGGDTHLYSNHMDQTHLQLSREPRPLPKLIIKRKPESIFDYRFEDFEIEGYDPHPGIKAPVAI

- IC50: 5 µM
SMILES: CN(C)c1cccc2c(S(=O)(=O)N[C@@H](Cc3ccc(OS(=O)(=O)c4cccc5c(N(C)C)cccc45)cc3)C(=O)O)cccc12 [Dansyl derivative, DDT, 1L]

From BindingDB's records for doi:10.1016/S1074-5521(01)00067-9 (University of California San Francisco, 2001)
